The test addresses Histone deacetylase 4 (Homo sapiens, UniProt P56524).

By UniProt entry, the sequences of proteins in these tests, tags left out. Where a name states a change or a piece, a line headed by the entry shows the natural chain unless it says otherwise.
UniProt P56524: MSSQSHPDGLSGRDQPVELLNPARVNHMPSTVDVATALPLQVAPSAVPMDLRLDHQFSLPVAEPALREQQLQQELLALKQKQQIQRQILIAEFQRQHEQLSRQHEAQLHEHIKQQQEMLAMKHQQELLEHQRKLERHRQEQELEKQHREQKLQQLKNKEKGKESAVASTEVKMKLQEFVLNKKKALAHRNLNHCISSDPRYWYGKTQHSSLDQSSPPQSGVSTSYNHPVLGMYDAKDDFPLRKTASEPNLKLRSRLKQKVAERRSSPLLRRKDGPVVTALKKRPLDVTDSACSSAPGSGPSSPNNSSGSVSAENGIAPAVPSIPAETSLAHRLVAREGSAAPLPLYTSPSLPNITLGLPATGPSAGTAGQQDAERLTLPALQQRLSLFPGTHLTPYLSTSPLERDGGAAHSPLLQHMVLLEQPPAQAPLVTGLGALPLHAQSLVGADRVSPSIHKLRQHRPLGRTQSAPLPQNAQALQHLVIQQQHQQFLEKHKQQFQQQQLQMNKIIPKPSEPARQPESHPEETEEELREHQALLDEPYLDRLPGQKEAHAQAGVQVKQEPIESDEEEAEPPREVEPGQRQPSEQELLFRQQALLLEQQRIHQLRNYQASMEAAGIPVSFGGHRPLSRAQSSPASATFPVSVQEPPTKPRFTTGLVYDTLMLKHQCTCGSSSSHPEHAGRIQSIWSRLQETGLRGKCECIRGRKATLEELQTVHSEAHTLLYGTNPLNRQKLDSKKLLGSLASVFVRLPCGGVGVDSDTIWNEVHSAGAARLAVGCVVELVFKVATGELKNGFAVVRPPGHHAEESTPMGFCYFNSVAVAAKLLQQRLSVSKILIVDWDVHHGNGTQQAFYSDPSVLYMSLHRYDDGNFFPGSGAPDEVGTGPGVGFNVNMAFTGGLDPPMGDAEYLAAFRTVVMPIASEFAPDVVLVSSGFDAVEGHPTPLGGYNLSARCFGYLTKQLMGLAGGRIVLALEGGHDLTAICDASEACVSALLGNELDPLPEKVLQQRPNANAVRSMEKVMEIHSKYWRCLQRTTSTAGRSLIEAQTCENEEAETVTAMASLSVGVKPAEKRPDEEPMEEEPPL

We go through 1 compound from ChEMBL document CHEMBL4138147, “Discovery of a fluorescent probe with HDAC6 selective inhibition” (Eur J Med Chem, 2017).

Molecules are shown by their SMILES. Bounds are passed on as bounds.

For the compound `CN1CCc2c(c3ccccc3n2Cc2ccc(C(=O)NO)cc2)C1` [TUBASTATIN A], the half-inhibitory concentration (IC50) (as a rule, the point on the concentration scale where inhibition reaches its midpoint) is greater than 30 µM.
